AlphaSeq binding of Ab-14 light chain variants to a spike HR2 peptide

Binding partner: SARS-CoV-2 spike HR2 peptide, sequence PDVDLGDISGINAS.

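The library (AAYL50) carries one to three amino acid substitutions per variant, with no insertions or deletions. The assay is AlphaSeq: two haploid yeast populations carry antibody and antigen on their surface. After mating in shaken culture at 30 °C for 16 h, diploids were selected and their barcode pairs sequenced. Each replicate has its own calibration line, from reference interactions of the BCL2 family. Each pool was mated in three replicate cultures.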

The variants keep the heavy chain, the linker and the frameworks of Ab-14 (scFv order VH, a 15-residue (Gly4Ser)3 linker, VL).
VH: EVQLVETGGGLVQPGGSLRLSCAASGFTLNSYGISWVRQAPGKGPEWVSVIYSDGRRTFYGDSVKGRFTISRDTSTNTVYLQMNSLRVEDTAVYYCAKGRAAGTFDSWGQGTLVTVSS
VL: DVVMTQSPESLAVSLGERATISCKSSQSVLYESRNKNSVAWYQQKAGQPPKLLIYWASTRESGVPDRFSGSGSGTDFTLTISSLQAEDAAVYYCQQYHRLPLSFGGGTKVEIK

Substitutions are numbered in sequence along the VL above, starting at 1 (not Kabat).
The Kd shown is the geometric mean over detected replicates; a lower Kd is a better binder.
An entry "nd" has no value in the source: the pair was not observed among the diploids in any replicate. This suggests poor binding but is not conclusive.
Background: pairings of library AAYL50 with three empty control strains gave a value in 18% of cases (median 15 µM, 5th percentile 970 nM). Values in that range, when seen in few replicates, are hard to tell from nonspecific mating. For each scFv, signals with the empty controls are counted beside the result.

S28W V29W P101Y: nd (0 of 3 replicates; controls 0 of 9).
R34K S38V A40T: 2.5 µM (1 of 3 replicates; controls 0 of 9).
L30C K36C A57V: 26 nM (3 of 3 replicates; controls 1 of 9).
R34W R60Q R99A: 230 nM (1 of 3 replicates; controls 2 of 9).
A40K Y97H P101L: nd (0 of 3 replicates; controls 2 of 9).
S26R S62I: 83 nM (3 of 3 replicates; controls 6 of 9).
Y31M S62H: 5.4 nM (3 of 3 replicates; controls 2 of 9).
Q27Y S38E S103E: 190 nM (1 of 3 replicates; controls 0 of 9).
E32T E61I H98R: nd (0 of 3 replicates; controls 1 of 9).
N35P S58W R60Q: nd (0 of 3 replicates; controls 1 of 9).
K24P L30S T59R: nd (0 of 3 replicates; controls 0 of 9).
S26Y S33G Q95P: 55 nM (3 of 3 replicates; controls 4 of 9).
S62T Y97T: nd (0 of 3 replicates; controls 0 of 9).
W56G Q96T: 380 pM (3 of 3 replicates; controls 6 of 9).
S33M Q96D Y97N: 11 µM (2 of 3 replicates; controls 3 of 9).
L30C R60K: 80 nM (3 of 3 replicates; controls 3 of 9).
L30D N37S H98A: nd (0 of 3 replicates; controls 0 of 9).
Y31D A57D Q96G: 2.2 nM (3 of 3 replicates; controls 0 of 9).
N37V S38E L100F: nd (0 of 3 replicates; controls 0 of 9).
S26K R34Q S58P: nd (0 of 3 replicates; controls 1 of 9).
N35P S62C R99S: 470 nM (1 of 3 replicates; controls 0 of 9).
Q27A K36T L100G: nd (0 of 3 replicates; controls 0 of 9).
L30G K36L Q95M: 20 µM (2 of 3 replicates; controls 4 of 9).

Second part, the sequence after the result:

Result 7.3 nM (3 of 3 replicates; controls 0 of 9), variant V29D E61C R99V.
Result 23 µM (3 of 3 replicates; controls 5 of 9), variant A57L Q96K Y97G.
Result 1.5 µM (2 of 3 replicates; controls 3 of 9), variant S38Q T59Y.
Result 8.9 nM (3 of 3 replicates; controls 2 of 9), variant Q96L H98L S103W.
Result 4.6 µM (1 of 3 replicates; controls 3 of 9), variant K24G V39S S58A.
Result 760 µM (1 of 3 replicates; controls 4 of 9), variant T59A S62W.
Result 5.4 µM (3 of 3 replicates; controls 4 of 9), variant S28L V39S.
Result 3.1 µM (1 of 3 replicates; controls 1 of 9), variant S26N S33V L102W.
Result 5.1 µM (1 of 3 replicates; controls 4 of 9), variant K24W S25N Y97E.
Result 310 nM (3 of 3 replicates; controls 2 of 9), variant S58G L102P.
Result 28 nM (1 of 3 replicates; controls 0 of 9), variant Y31P R99F.
Result 59 nM (3 of 3 replicates; controls 0 of 9), variant L30M S62Q Y97F.
Result 94 nM (3 of 3 replicates; controls 2 of 9), variant R34V H98L.
Result nd (0 of 3 replicates; controls 1 of 9), variant S26K R60P Y97T.
Result nd (0 of 3 replicates; controls 2 of 9), variant Q27N R34S A40K.
Result 2.9 nM (3 of 3 replicates; controls 0 of 9), variant L30F H98P P101H.
Result nd (0 of 3 replicates; controls 0 of 9), variant S25Y S33N W56P.
Result 42 nM (3 of 3 replicates; controls 0 of 9), variant L30I K36H.
Result nd (0 of 3 replicates; controls 1 of 9), variant K36M A40R W56K.
Result nd (0 of 3 replicates; controls 0 of 9), variant S58P Q95P.
Result 19 µM (1 of 3 replicates; controls 4 of 9), variant Q27G Y31K Q96V.
Result 11 nM (3 of 3 replicates; controls 0 of 9), variant S26D K36L L102S.
Result nd (0 of 3 replicates; controls 1 of 9), variant S38I Q95G S103P.

Data: MIT Lincoln Laboratory AlphaSeq set, Engelhart et al. 2022, doi:10.1038/s41597-022-01779-4, as distributed in FLAb.